Measured values reported in patent publication US9393221B2, “Methods and compounds for reducing intracellular lipid storage” (THE GENERAL HOSPITAL CORPORATION, priority 2011, dated 2016).

Tested on: ATGL-KO iPSCs
Test: High throughput iPSC chemical screening, Oil Red O (ORO) lipid accumulation; note: test concentration or dose not given here
Assay type: cell-based, mouse
Settings: normalized ORO level vs DMSO-treated cells; compound present during 7 days differentiation, 96-well; negative = decrease in lipid accumulation

NC(=O)Nc1ccc([As](=O)(O)O)cc1
Z-score: 0.3039
